The experiment addresses human cloned 5-HT6 receptors (Homo sapiens, UniProt P50406). The experiment is described as follows: Evaluation of 5-HT6 binding affinity ([3H]-LSD radioligand binding). As to conditions: read-out: 5-HT6 Binding Ki; membranes of Hela cells expressing human cloned 5-HT6 receptors; [3H]-LSD 3.0 nM; 120 minutes at room temperature.

Amino acid sequences for entries named in this document (tags omitted).
UniProt P50406, whole entry: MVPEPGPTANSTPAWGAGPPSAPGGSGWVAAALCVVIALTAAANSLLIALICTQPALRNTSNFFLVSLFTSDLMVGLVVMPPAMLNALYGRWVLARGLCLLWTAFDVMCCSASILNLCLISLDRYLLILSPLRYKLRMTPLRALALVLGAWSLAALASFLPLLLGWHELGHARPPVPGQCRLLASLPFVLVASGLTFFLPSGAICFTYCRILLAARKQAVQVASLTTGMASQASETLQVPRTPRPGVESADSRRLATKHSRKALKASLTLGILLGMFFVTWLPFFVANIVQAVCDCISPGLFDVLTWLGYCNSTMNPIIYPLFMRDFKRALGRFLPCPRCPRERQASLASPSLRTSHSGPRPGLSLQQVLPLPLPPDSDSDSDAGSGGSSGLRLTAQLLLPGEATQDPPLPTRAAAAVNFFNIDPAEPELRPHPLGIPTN

We go through 17 compounds from patent US7501421B2, “Benzoxazole and benzothiazole derivatives as 5-hydroxytryptamine-6 ligands” (Wyeth, priority 2006, dated 2009).

pKi: −log10 of the molar value. Structures can show the parent of a compound that is named as a salt.

For the compound `O=S(=O)(c1ccc2oc(N3CCNCC3)nc2c1)c1cccc2ccccc12` [Example 5, 5-(1-Naphthylsulfonyl)-2-piperazin-1-ylbenzoxazole Dihydrochloride], the negative logarithm of the Ki (pKi) (as a rule, the negative decadic logarithm of the Ki, by convention in mol/L) was 7.28.
The figure for `O=S(=O)(c1cccc2ccccc12)c1cccc2oc(N3CCNCC3)nc12` [Example 12, 4-(1-Naphthylsulfonyl)-2-piperazin-1-ylbenzoxazole Dihydrochloride] is 8.51; for `O=S(=O)(c1cccc(F)c1)c1cccc2oc(N3CCNCC3)nc12` [Example 14] it is 7.27.
The figure for `O=S(=O)(c1ccc(F)cc1)c1cccc2oc(N3CCNCC3)nc12` [Example 15] is 7.19; for `O=S(=O)(c1cccc(Cl)c1)c1cccc2oc(N3CCNCC3)nc12` [Example 16] it is 7.51; for `CC(C)c1ccc(S(=O)(=O)c2cccc3oc(N4CCNCC4)nc23)cc1` [Example 17] it is 7.66.
Take `O=S(=O)(c1cccc(C(F)(F)F)c1)c1cccc2oc(N3CCNCC3)nc12` [Example 18]: the pKi was 7.66.
The figure for `O=S(=O)(c1ccc(C(F)(F)F)cc1)c1cccc2oc(N3CCNCC3)nc12` [Example 19] is 7.48; for `COc1cccc(S(=O)(=O)c2cccc3oc(N4CCNCC4)nc23)c1` [Example 20] it is 7.60; for `O=S(=O)(c1cc(Cl)ccc1Cl)c1cccc2oc(N3CCNCC3)nc12` [Example 21] it is 7.89.
On to `CCN1CCN(c2nc3c(S(=O)(=O)c4cccc5ccccc45)cccc3o2)CC1` [Example 23, 2-(4-Ethylpiperazin-1-yl)-4-(1-naphthylsulfonyl)benzoxazole Dihydrochloride], for which the pKi was 7.92.
The figure for `CCCN1CCN(c2nc3c(S(=O)(=O)c4cccc5ccccc45)cccc3o2)CC1` [Example 24] is 7.44; for `CC(C)N1CCN(c2nc3c(S(=O)(=O)c4cccc5ccccc45)cccc3o2)CC1` [Example 25] it is 7.89; for `CCCCN1CCN(c2nc3c(S(=O)(=O)c4cccc5ccccc45)cccc3o2)CC1` [Example 26] it is 7.06.
As for `CC(C)CN1CCN(c2nc3c(S(=O)(=O)c4cccc5ccccc45)cccc3o2)CC1` [Example 27], the negative logarithm of the Ki (pKi) was 6.75.
On to `O=S(=O)(c1cccc2ccccc12)c1cccc2oc(N3CCN(C4CCC4)CC3)nc12` [Example 29], for which the pKi is 7.14.
The figure for `O=S(=O)(c1ccc2nc(N3CCNCC3)oc2c1)c1cccc2ccccc12` [Example 35, 6-(1-naphthylsulfonyl)-2-piperazin-1-ylbenzoxazole Dihydrochloride] is 6.71.
